In this assay the test system is Staphylococcus aureus. The following applies: ATCC 29213.

Regarding GENTAMICIN, the MIC was determined as 0.5 µg/mL.

For the origin of these results see ChEMBL document CHEMBL2163228, “Structure-based discovery of substituted 4,5'-bithiazoles as novel DNA gyrase inhibitors” (J Med Chem, 2012).
